# Screens: PubChem BioAssay, National Center for Advancing Translational Sciences (NCATS)
# Nrf2 block: Nrf2 pathway inhibition; A549 ARE-Fluc reporter, luciferase luminescence, 18-24 h; Potency, µM (top dose mostly 46 µM), for the others: at the top dose activity change, negative = inhibition, most hits filed as inhibitors; 2.1% of 360,000 active; AID 504444; also: potency is read from the fitted curve at half-maximal effect; % is scaled to controls: 0 for no effect and ±100 for the full control effect; nearly all actives have a fitted effect of over 60% in size
#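 Nrf2 activity is the BugLite luminescence, read 15 min after reagent at room temperature, following CellTiter-Fluor cytotoxicity readout (30 min, 37C). Compound titrations were applied for 18-24 h to 5000 A549 ARE_Fluc cells/well in 5% FBS OPTI-MEM.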
# A549 tox: kills or reduces viability of A549 cells in Nrf2 counter-screen; AID 504648; 0.16% of 390,000 active; A549 ARE-Fluc cells, CellTiter-Fluor viability, 18-24 h; Potency, µM (doses to about 46 µM), for inactives: top-dose activity change, negative = cytotoxicity, hits mostly inhibitors; also: potency is read from the fitted curve at half-maximal effect; % is scaled to controls: 0 for no effect and ±100 for the full control effect
#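 Cytotoxicity counterscreen: CellTiter-Fluor fluorescence was measured in A549 ARE_Fluc cells after 18-24 h of compound exposure in a concentration series. The subsequent BugLite luminescent read reports ARE-luciferase activity.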
# Nrf2 ARE act: activators of Nrf2 (ARE) signaling; AREc32 ARE-luciferase reporter (MCF7-derived line), luminescence, 24 h; Potency, µM (doses to about 46.1 µM), inactives show top-dose activation, usual class: activators; 0.31% of 410,000 active; AID 624171; also: potency is read from the fitted curve at half-maximal effect; % of control where 0% means no effect; nearly all actives have a fitted effect of over 65% in size
#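 Luminescent ARE reporter assay in AREc32_Fluc cells: overnight plating at 37 deg C, 24 hr compound incubation, Steady-Glo added, 30 min RT before reading.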
# miR-21 reporter: miR-21 reporter, rising signal | AID 2288 | HeLa miR-21 FLuc reporter, luciferase, 48 h | 340,000 tested, under 10 active | Potency, µM (titrated, usually from 38.3 µM), for the others: at the top dose reporter change, positive = more light; active = well fitted rising curve with a large enough effect; inconclusive = small, poorly fitted or top-dose-only effect; inactive = no such curve, though single readings can be large or run the other way;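 also: % of control where 0% means no effect; miR-21 action dims this reporter so a rising signal means less miR-21 action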
#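 Using DMEM plus 10% FBS, HeLa miR-21-FLuc cells are incubated with test compounds (final up to about 40uM) for 48 hours; firefly luciferase signal is then imaged following reagent-mediated lysis.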
# Mito fusion act: mitochondrial division inhibition or fusion activation. S. cerevisiae fusion-defective mutant growth rescue, CellTiterGlo 48 h. Potency, µM (doses to about 46.1 µM), inactives show top-dose growth rescue (activation), hits mostly activators. 0.23% of 320,000 active; also: potency is read from the fitted curve at half-maximal effect; % of control where 0% means no effect; nearly all actives have a fitted effect of over 45% in size
#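 Compounds are tested for their ability to restore growth of mitochondrial fusion-defective yeast strains at non-permissive 37C in YPEG medium over 48 hours. Viability is quantified by luciferase luminescence.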
# Starred values were filed as active, the others as inactive; ? = inconclusive; · = no result; [ ] = dose if it differs, or a comment. A selection: hits, their analogues and other compounds. The true share with any hit is near 2.3%. Calls follow the shape of the dose curve; as a rule, active = well fitted curve in the direction sought with a large enough effect; inconclusive = small, poorly fitted or top-dose-only effect, or another doubt; inactive = no such curve, though single readings can be large; an effect the other way counts as inactive or inconclusive.
# Order of results: Nrf2 block | A549 tox | Nrf2 ARE act | miR-21 reporter | Mito fusion act
1: COc1ccc(CCN(C)C(=O)c2cc(S(=O)(=O)NCc3ccccc3)ccc2C)cc1OC
→ 16µM* | -9% | 1% | · | -2%
2: O=[N+]([O-])C(/C=C(\Cl)[N+](=O)[O-])=C(N1CCCCC1)N1CCCCC1
→ -17% | 23µM* | 7%[9.22 µM] | 0% | ?
3: O=[N+]([O-])C(=C1SCCS1)C(=C(Cl)Cl)N1CCCCC1
→ -13% | -10% | 0% | -2% | -4%
4: OC[C@H]1O[C@H](n2cnc3c(N[C@H]4CCC[C@@H]4O)ncnc32)[C@H](O)[C@@H]1O
→ · | · | · | · | -30%
5: Cc1ccc(Cl)cc1NC(=O)CCn1c(=O)c2cccn2c2cccnc21
→ -1% | -1% | 3% | -2% | ·
6: CCNC(=O)c1ccc2nc(CCc3ccccc3)oc2c1
→ · | 3% | 1% | -55% | ·
7: CCN(Cc1ccccc1)S(=O)(=O)c1cc(C(=O)NCC2CCCCC2)ccc1OC
→ 12µM* | -22% | 0% | 24% | 25%
8: Cc1cc2c(s1)c1cnn(Cc3c(F)c(F)c(C)c(F)c3F)c(=O)c1n2C
→ 10% | -4% | · | · | ·
9: COc1ccc(N2CCN(C(=O)c3[nH]c4ccc(OC)cc4c3C)CC2)cc1
→ -16% | -4% | 0% | -2% | -37%
10: COc1ccc(-c2cn3c(C)c(C(=O)N4CCc5ccccc5C4)sc3n2)cc1
→ 16µM* | -5% | 0% | 10% | 19%
11: COc1ccc2[nH]c(C(=O)N3CCc4ccccc4C3)c(C)c2c1
→ 18µM* | 9% | 3% | -4% | 16%
12: Nc1nc(-c2ccccc2)c(N=Nc2cccc3ccccc23)s1
→ -8% | 16µM* | 24% | 3% | 10%
13: Cc1ccc(N/C(N)=N/c2nc(C)cc(N3CCCCC3)n2)c(C)c1
→ 13µM* | ? | 0% | ? | -7%
14: Cc1ccc(N/C(N)=N/c2nc3c(c(=O)[nH]2)CCCC3)c(C)c1
→ -33% | -17% | 0% | -8% | 0%
15: CCOC(=O)c1ccc(-c2ccc3ncnc(NCc4cccs4)c3c2)o1
→ 0% | ? | · | · | ·
16: COc1ccc(C(=O)NC(=O)Nc2cc(C)ccn2)cc1
→ 7.3µM* | 17% | -1% | -9% | -3%
17: COc1ccc(NC(=O)Nc2cc(C)ccn2)cc1
→ ? | 1% | -1% | · | ·
18: O=C(Nc1ccccn1)c1csc2c1CCCC2
→ ? | 11% | 5µM* | -40% | 21%
19: CCOC(=O)c1[nH]c2c(c1Cc1ccccc1)C(=O)CC(c1ccc(OC)cc1)C2 (stereo not drawn)
→ ? | -4% | 1% | 23% | ·
20: COc1cccc(CN(C)C(=O)c2cccc(S(=O)(=O)N3CCN(c4ccccc4)CC3)c2)c1
→ · | · | 4% | · | ·
21: CN(CC(=O)Nc1ccc(F)cc1)C(=O)c1cccc(S(=O)(=O)N2CCN(c3ccc(F)cc3)CC2)c1
→ 21µM* | -22% | 1% | · | -2%
22: CN(Cc1cccc(F)c1)C(=O)c1ccc(S(=O)(=O)N2CCCCCC2)cc1
→ 23µM* | -16% | 4% | · | ·
23: COc1ccc(CN(C)C(=O)c2cccc(S(=O)(=O)N3CCN(c4ccccc4)CC3)c2)c(OC)c1OC
→ 10µM* | -20% | 2% | · | 1%
24: O=C(NCCOc1ccccc1F)c1cccc(S(=O)(=O)N2CCN(c3ccccc3)CC2)c1
→ 4.6µM* | -7% | 2% | · | 23%
25: COc1ccc(CCNC(=O)c2ccc3c(c2)N(Cc2ccc(Cl)cc2)CCS3)c(OC)c1
→ -18% | -1% | -1% | 8% | ·
26: CC(=O)c1ccc(N2CCN(C(=O)CCS(=O)(=O)c3ccc4c(c3)oc(=O)n4C)CC2)cc1
→ 9% | 5% | 0% | -5% | ·
27: CN(Cc1ccc(F)cc1)C(=O)c1cccc(S(=O)(=O)N2CCN(c3ccccc3)CC2)c1
→ 23µM* | -12% | 2% | · | 13%
28: COc1ccc(C(CNC(=O)c2cccc(S(=O)(=O)N3CCCc4ccccc43)c2)N(C)C)cc1 (stereo not drawn)
→ 1% | -23% | 10% | · | ·
29: COc1ccc(CN(C)C(=O)c2cccc(S(=O)(=O)N3CCCc4ccccc43)c2)c(OC)c1OC
→ 23µM* | ? | -1% | · | ·
30: CCN(CC(=O)Nc1c(F)cccc1F)C(=O)c1cccc(S(=O)(=O)N2CCCc3ccccc32)c1
→ 26µM* | ? | 0% | · | ·
31: Cc1ccc(C)c(NC(=O)CN(C)C(=O)c2cccc(S(=O)(=O)N3CCN(Cc4ccccc4)CC3)c2)c1
→ 12µM* | -9% | 2% | 18% | -1%
32: CN(Cc1ccc(F)cc1)C(=O)c1cccc(S(=O)(=O)N2CCN(Cc3ccccc3)CC2)c1
→ ? | 1% | 0% | · | 5%
33: O=[S+]([O-])(c1ccc2c(c1)OCCO2)N1CCN([S+](=O)([O-])c2ccc(F)cc2Cl)CC1
→ -20% | 1% | · | · | ·
34: CN1CCc2ccc3c4c2[C@]1(C)Cc1cccc(c1-4)OCO3
→ -1% | -13% | · | · | ·
35: CN(Cc1ccc(F)cc1)C(=O)c1cccc(S(=O)(=O)N2CCN(c3ccc(F)cc3)CC2)c1
→ 18µM* | -16% | 0% | · | 0%
36: O=C(c1cccc(S(=O)(=O)N2CCN(c3ccccc3)CC2)c1)N1CCCC(C(F)(F)F)C1 (stereo not drawn)
→ 13µM* | -19% | -1% | · | 12%
37: CCOc1ccc(C(=O)n2cnnc2N)cc1
→ 13µM* | 1% | 0% | 2% | 4%
38: Cc1ccc(-c2nc3cccc(C)n3c2Nc2ccc(F)cc2)o1
→ -11% | 1% | · | · | ·
39: COc1cccc(CN(C)C(=O)CNC(=O)c2sc3ccccc3c2Cl)c1OC
→ 26µM* | -17% | 3% | · | 5%
40: O=S(=O)(Nc1cc(Cl)ccc1-n1cncn1)c1cc(Br)ccc1Br
→ 13µM* | ? | 0% | · | 16%
41: O=S(=O)(Nc1cc(Cl)ccc1-n1cncn1)c1ccccc1Cl
→ ? | 1% | 0% | · | 3%
42: CCOC(=O)N1CCN(S(=O)(=O)c2ccc(C(=O)NNc3nc4cc(C)cc(C)c4s3)cc2)CC1
→ 3.7µM* | ? | 0% | 5% | -2%
43: CCOC(=O)N1CCN(S(=O)(=O)c2ccc(C(=O)NNc3nc4c(C)cc(C)cc4s3)cc2)CC1
→ ? | -13% | 3% | 16% | 5%
44: CCOc1ccc(NC(=NCc2ccc3c(c2)OCO3)SC2CC(=O)N(c3ccc(OCC)cc3)C2=O)cc1 (stereo not drawn)
→ 15µM* | -27% | 0% | -22% | 0%
45: CCOC(=O)C1=C(C)NC(C)=C(C(=O)OCC)C1c1c(F)c(F)c(F)c(F)c1F
→ · | · | · | · | 2.3µM*
46: Cc1nn(-c2ccccc2)c(OC(=O)c2ccccc2)c1S(=O)(=O)c1ccccc1
→ -12% | 1% | -1% | 1% | ·
47: CCc1nnc(NC(=O)CCC(=O)N2CCN(Cc3ccc(C)cc3C)CC2)s1
→ -2% | 1% | 4% | 7% | 18%
48: CCc1nnc(NC(=O)CCC(=O)N2CCN(CCOc3ccc(C)cc3)CC2)s1
→ 21µM* | -12% | -1% | 16% | 1%

# An excerpt from the list above:
# Order of results: Nrf2 block | A549 tox | Nrf2 ARE act | miR-21 reporter | Mito fusion act
45: CCOC(=O)C1=C(C)NC(C)=C(C(=O)OCC)C1c1c(F)c(F)c(F)c(F)c1F
→ · | · | · | · | 2.3µM*
46: Cc1nn(-c2ccccc2)c(OC(=O)c2ccccc2)c1S(=O)(=O)c1ccccc1
→ -12% | 1% | -1% | 1% | ·
47: CCc1nnc(NC(=O)CCC(=O)N2CCN(Cc3ccc(C)cc3C)CC2)s1
→ -2% | 1% | 4% | 7% | 18%
48: CCc1nnc(NC(=O)CCC(=O)N2CCN(CCOc3ccc(C)cc3)CC2)s1
→ 21µM* | -12% | -1% | 16% | 1%

# Structures above that bear a hit mark in Nrf2 ARE act:
nr	Molecule	Nrf2 ARE act	miR-21 reporter
18	O=C(Nc1ccccn1)c1csc2c1CCCC2	5µM*	-40%
